Legend:
Experiment in all cases: PPO enzyme inhibition (IC50), MBP-fused PPO
Format in all cases: biochemical
Conditions in all cases: 50 μM protoporphyrinogen IX, pH 8.0, room temperature, 30 min
[1] = target: Thermosynechococcus sp. NK55a PPO CyPPO17, wild type, SEQ ID NO: 3 (MBP fusion)
Procedure: (§1) Thus, PPO proteins of wild type and variants were expressed as fused to MBP and were used for experiments.
(§2) The following process for purification of PPO protein was performed in a 4° C. cold room. Amylose resin (NEB) was packed to 1.5×15 cm column (Bio-Rad, Econo Columns 1.5×15 cm, glass chromatography column, max. vol), and the obtained protein extracts were loaded to the column at a flow rate of 0.2 ml/min. The column was washed with 3 column volumes of buffer and the presence of protein in the washing solution was examined. When the protein was no longer detected, the washing procedure was terminated. Then, the MBP-PPO protein was eluted with approximately 2 column volumes of buffer containing 20 mM maltose. The protein concentration of each eluent was determined and the elution was stopped when the protein was no longer detected. Ten microliter of each fraction was investigated for protein quantification and SDS-PAGE analysis. The highly pure fractions of PPO protein variants were used for the enzyme assay.
(§3) Since protoporphyrinogen IX, a substrate of PPO protein, was not commercially available, it was chemically synthesized in the laboratory. Overall process was performed in dark under nitrogen stream. […] of protoporphyrin IX was dissolved in 20 ml of 20% (v/v) EtOH, and stirred under dark condition for 30 minutes. The obtained protoporphyrin IX solution was put into a 15 ml screw tube in an amount of 800 μl, and flushed with nitrogen gas for 5 minutes. To this, 1.5 g of sodium amalgam was added and vigorously shaken for 2 minutes. The lid was opened to exhaust hydrogen gas in the tube. Thereafter, the lid was closed and incubated for 3 minutes. The protoporphyrinogen IX solution was filtered using syringe and cellulose membrane filter. […] To determine the enzyme activity of PPO protein, a reaction mixture was prepared with the following composition (based on 10 ml): 50 mM Tris-Cl (pH 8.0); 50 mM NaCl; 0.04% (v/v) Tween 20; 40 mM glucose (0.072 g); 5 units glucose oxidase (16.6 mg); and 10 units catalase (1 μl).
(§4) Hundred and eighty microliters of a reaction mixture containing the purified PPO protein were placed in 96 well plates and 20 μl of […] were added. […] The reaction proceeded at room temperature for 30 min and the fluorescence of protoporphyrin IX was measured using Microplate reader (Sense, Hidex) (excitation: 405 nm; emission: 633 nm). […] To this, 2.7 N HCl was added, and the absorbance at 408 nm was measured. A standard curve was generated using standard protoporphyrin IX, and PPO activity was measured by calibration of protoporphyrin IX using the standard curve of protoporphyrin IX.

[2] = target: Thermosynechococcus sp. NK55a PPO CyPPO17 (SEQ ID NO: 3) variant L326T (MBP fusion)
Procedure: as §1, §2, §3, §4

[3] = target: Thermosynechococcus sp. NK55a PPO CyPPO17 (SEQ ID NO: 3) variant A166L (MBP fusion)
Procedure: as §1, §2, §3, §4

[4] = target: Thermosynechococcus sp. NK55a PPO CyPPO17 (SEQ ID NO: 3) variant V304M (MBP fusion)
Procedure: as §1, §2, §3, §4

[5] = target: Thermosynechococcus sp. NK55a PPO CyPPO17 (SEQ ID NO: 3) variant R88A (MBP fusion)
Procedure: as §1, §2, §3, §4

[6] = target: Thermosynechococcus sp. NK55a PPO CyPPO17 (SEQ ID NO: 3) variant V164C (MBP fusion)
Procedure: as §1, §2, §3, §4

Row | SMILES | IC50 [1] [nM] | IC50 [2] [nM] | IC50 [3] [nM] | IC50 [4] [nM] | IC50 [5] [nM] | IC50 [6] [nM]
1 | C#CCN1C(=O)COc2cc(F)c(N3C(=O)C4=C(CCCC4)C3=O)cc21 [flumioxazin] | 26 | 139 | 2830 | 63 | 95 | –
2 | Cc1nn(-c2cc(NS(C)(=O)=O)c(Cl)cc2Cl)c(=O)n1C(F)F [sulfentrazone] | 326 | > 10000 | – | 1090 | 4430 | 920
